Only a part is listed here, and it is no random draw. Some salts and complexes are drawn in separate pieces, as the source files them; their charges need not balance. Activity calls are given as the source filed them. Cut-off read from the data, not from the text of the source: active = inhibition above about 54% (passing the limit was not always enough); inconclusive = no clear call, values can overlap the other calls.

Amino acid sequences for entries named in this document (tags omitted).
UniProt O96028, whole entry: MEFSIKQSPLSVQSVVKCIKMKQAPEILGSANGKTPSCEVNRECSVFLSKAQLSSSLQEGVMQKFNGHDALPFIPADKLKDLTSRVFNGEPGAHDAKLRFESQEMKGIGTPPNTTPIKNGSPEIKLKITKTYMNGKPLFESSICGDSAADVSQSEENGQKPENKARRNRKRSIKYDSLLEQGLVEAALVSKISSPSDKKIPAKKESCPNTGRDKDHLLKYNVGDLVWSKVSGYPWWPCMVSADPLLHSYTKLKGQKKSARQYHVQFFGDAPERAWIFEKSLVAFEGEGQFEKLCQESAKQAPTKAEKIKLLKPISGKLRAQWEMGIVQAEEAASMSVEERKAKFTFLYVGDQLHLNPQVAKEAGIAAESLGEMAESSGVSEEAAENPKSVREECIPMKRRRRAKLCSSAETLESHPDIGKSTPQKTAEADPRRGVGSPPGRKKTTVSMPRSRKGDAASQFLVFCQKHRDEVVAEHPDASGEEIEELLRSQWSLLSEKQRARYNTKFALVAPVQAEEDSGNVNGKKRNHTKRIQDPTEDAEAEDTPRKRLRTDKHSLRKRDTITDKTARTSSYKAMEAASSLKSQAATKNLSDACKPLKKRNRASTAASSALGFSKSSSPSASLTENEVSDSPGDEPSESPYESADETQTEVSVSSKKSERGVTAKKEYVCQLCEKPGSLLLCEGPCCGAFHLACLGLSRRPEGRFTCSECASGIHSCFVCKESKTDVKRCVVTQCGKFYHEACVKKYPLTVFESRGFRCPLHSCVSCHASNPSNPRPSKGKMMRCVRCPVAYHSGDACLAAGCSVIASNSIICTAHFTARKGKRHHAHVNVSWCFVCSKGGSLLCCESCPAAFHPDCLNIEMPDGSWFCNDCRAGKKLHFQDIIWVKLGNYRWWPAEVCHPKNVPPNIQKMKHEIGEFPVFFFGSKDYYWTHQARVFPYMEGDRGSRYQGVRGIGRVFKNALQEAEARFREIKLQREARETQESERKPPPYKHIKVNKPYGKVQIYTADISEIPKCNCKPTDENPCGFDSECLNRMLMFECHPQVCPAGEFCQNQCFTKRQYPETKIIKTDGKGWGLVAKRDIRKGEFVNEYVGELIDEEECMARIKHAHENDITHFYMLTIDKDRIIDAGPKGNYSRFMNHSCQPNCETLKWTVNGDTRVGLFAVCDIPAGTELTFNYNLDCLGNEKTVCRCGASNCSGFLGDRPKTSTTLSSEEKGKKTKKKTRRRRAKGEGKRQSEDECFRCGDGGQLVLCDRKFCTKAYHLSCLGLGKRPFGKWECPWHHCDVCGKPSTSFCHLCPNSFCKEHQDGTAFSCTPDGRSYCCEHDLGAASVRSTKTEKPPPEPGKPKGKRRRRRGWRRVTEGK

The target of this assay is Histone-lysine N-methyltransferase NSD2 (Homo sapiens) (UniProt O96028). The assay can be described thus: inhibitors of human NSD2, primary screen, biochemical, plate reader, single point (AID 624260).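 Note: inhibitors reduce the monomethyl H3K36 fluorescence signal.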 Particulars: NSD2-SET H3K36me1 DELFIA fluorescence, at 12.5 µM, active compounds read high.
In general, inhibition refers to the change of the read-out against control, counted positive when it falls. Regarding `C/C1=C2N=C(/C=C3N=C(/C(C)=C4\[N-][C@@](C)([C@@H]5N=C1[C@](C)(CCC(=O)NCC(C)OP(=O)(O)O[C@@H]1[C@H](O)[C@H](n6cnc7cc(C)c(C)cc76)O[C@H]1CO)[C@H]5CC(N)=O)[C@@](C)(CC(N)=O)[C@@H]4CCC(N)=O)[C@@](C)(CC(N)=O)[C@@H]\3CCC(N)=O)C(C)(C)[C@@H]/2CCC(N)=O.[C-]#N.[Co+3]` (stereo partly specified), the inhibition is inactive: -1.77%.
